## Binding of CDR-mutated scFvs to a peptide of the spike HR2 region

Source: Engelhart et al. 2022 (doi:10.1038/s41597-022-01779-4), MIT Lincoln Laboratory and A-Alpha Bio; data file from the FLAb repository.

The target is the same throughout: PDVDLGDISGINAS, from the HR2 region of SARS-CoV-2 spike.

Each scFv is VH, the linker GGGGSGGGGSGGGGS, VL, as in the parent Ab-14, and differs from it in the CDRs of the heavy chain only.
VH: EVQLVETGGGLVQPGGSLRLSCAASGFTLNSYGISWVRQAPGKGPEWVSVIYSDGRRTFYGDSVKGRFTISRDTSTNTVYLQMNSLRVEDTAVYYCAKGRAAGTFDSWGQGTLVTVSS
VL: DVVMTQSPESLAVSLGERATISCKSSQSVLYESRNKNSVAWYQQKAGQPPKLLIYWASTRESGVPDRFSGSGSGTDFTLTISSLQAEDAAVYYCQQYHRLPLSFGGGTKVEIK

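The parent was found by panning a naive human phage display library on the peptide. AAYL49 was designed without a model: most single CDR substitutions and a random sample of double and triple ones. In AlphaSeq, yeast of one mating type display the scFv and yeast of the other type display the target. Binding brings cells together so that they mate, and sequencing counts the barcode pairs among the diploids. A regression on co-assayed BCL2-family reference pairs converts the normalised counts of each replicate to an apparent Kd. Each pool was mated in three replicate cultures.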

The parent's heavy chain CDRs are GFTLNSYGIS, VIYSDGRRTFYGDSVK, GRAAGTFDS; each variant's own CDRs replace them letter for letter. Affinities are written as log10 Kd with Kd in nM; a lower number is a better binder. "ND" means that the variant was in the library but no mating with the target was seen in that replicate; the authors take this as a sign of poor binding, and no number exists. For reference, the parent read 0.65 as the reference entry and 4.11 (one replicate of three) as a member of this library.

The variant GFTLLSYGIS / VIYSDGRRTFYGDSVD / GRAFGTFDS showed 2.24, 2.09, 2.45 (controls 0 of 9).
The variant GATLNSYGIS / VPYSDGRRTFYGDSVK / GRNAGTFDS showed ND, ND, ND (controls 2 of 9).
The variant GFTLNSYGIS / VIYSDGRRTGYGDSVK / GRAAGAFYS showed 1.38, 1.47, 1.48 (controls 0 of 9).
The variant GFTLNSYGIS / VITSDGRRYFYGDSVK / GRAAGTIDS showed ND, ND, ND (controls 0 of 9).
The variant GFTLNCYGIS / VIYSDGRRTSYGDSVK / GRAAGTFDS showed 2.48, 2.26, 2.78 (controls 0 of 9).
The variant GLTLNSYGIS / VIYSDGHRTFDGDSVK / GRAAGTFDS showed ND, 4.44, ND (controls 1 of 9).
The variant GFTLNSYGIS / VIYRDGFRTFYGDSHK / GRAAGTFDS showed ND, ND, 4.44 (controls 2 of 9).
The variant GFTLNSYGIG / VIYSDGRRTPYGDSVK / GRAAGTFDS showed ND, 3.21, ND (controls 1 of 9).
The variant GFTLEWYGIS / VIYSHGRRTFYGDSVK / GRAAGTFDS showed ND, ND, ND (controls 0 of 9).
The variant GFTYNSLGIS / VIYSDGRRTFYGDSVA / GRAAGTFDS showed 4.79, ND, 4.78 (controls 1 of 9).
The variant GFTLNSLMIS / VIYSDGRRTFYLDSVK / GRAAGTFDS showed 2.93, 3.11, 5.73 (controls 1 of 9).
The variant MFTLHSYGIS / VIYSDGRRTFYGDSVK / GRAAGIFDS showed ND, ND, 5.09 (controls 3 of 9).
The variant GFTDNSYGIS / VIYSDKRRTFYGDSVK / GRAARTFDS showed ND, ND, 4.47 (controls 3 of 9).
The variant GFTLNSYGIS / VIYSDGRRTFTGDSVT / GRAAGTKDS showed ND, ND, ND (controls 1 of 9).
The variant GFTLWSYGIS / VIASDGRRTFYGDSVK / GRRAGTFDS showed ND, ND, ND (controls 0 of 9).
The variant GFTLNSYGIS / VIYLDMRRTFYGDSVK / GRAAGTFDS showed 5.03, ND, ND (controls 2 of 9).
The variant GFTLNSYGIS / VIYSDQFRTFYGDSTK / GRAAGTFDS showed ND, ND, ND (controls 0 of 9).
The variant GFTLNSEGIV / VIYSDGRRTFYGDSVL / GRAAGTFDS showed ND, ND, ND (controls 0 of 9).
The variant GFTLNSYGIS / VIYSDGRRTFYGDSKK / GRAAGTFIS showed ND, ND, ND (controls 2 of 9).
The variant GFTINSYGIS / VKYSDGRRTFYGDSVK / GRAAGTKDS showed ND, ND, ND (controls 0 of 9).
The variant GFILNSAKIS / VIYSDGRRTFYGDSVK / GRAAGTFDS showed ND, ND, ND (controls 1 of 9).
The variant GFTLNSYGIS / VIYSDGRRTSYGDSVS / GRAAKTFDS showed ND, ND, ND (controls 1 of 9).
The variant GFTLNSYGIS / LMYSDGRRFFYGDSVK / GRAAGTFDS showed ND, ND, ND (controls 3 of 9).
The variant GFTLNRYGIS / VIYSDGWRTFYGDSVK / GRAAGCFDS showed ND, ND, ND (controls 0 of 9).
The variant GFTLNSYGIS / VIWIDGRRTFQGDSVK / GRAAGTFDS showed ND, ND, ND (controls 0 of 9).
The variant GFTLNSYGFS / VIYSDGANTFYGDSVK / GRAAGTFDS showed ND, ND, 4.35 (controls 3 of 9).
The variant GFTLNSYGNS / VIYSDGRRTFYGDSVK / GRAAGTFDS showed ND, ND, ND (controls 2 of 9).
The variant GFTLNSYGIS / VIYSDGRRFFYGDSVK / GRACGTFCS showed 2.70, ND, ND (controls 1 of 9).
The variant SFTLNEWGIS / VIYSDGRRTFYGDSVK / GRAAGTFDS showed 2.31, ND, ND (controls 1 of 9).
The variant GFTWLMYGIS / VIYSDGRRTFYGDSVK / GRAAGTFDS showed 3.45, 2.72, 3.15 (controls 1 of 9).
The variant GFTLNSHGIS / VIYRDGDRTFYGDSVK / GRAAGTFDS showed ND, ND, 3.53 (controls 1 of 9).
The variant GFTLLSYGIS / VIYSDGRRTFYEDSVA / GRAAGTFDS showed ND, ND, ND (controls 0 of 9).
The variant GFILNSYGIS / MIYSDGRRTFYGASVK / GRAAGTFDS showed ND, ND, ND (controls 0 of 9).
The variant GFTLNSYGES / VIYSDGRRTFYGDAVK / GRAAGEFDS showed ND, ND, ND (controls 0 of 9).

The 3 strongest on average among those seen in every replicate, once more:

CDR-H1,CDR-H2,CDR-H3,"log10 Kd, replicates",signal with controls
GFTLNSYGIS,VIYSDGRRTGYGDSVK,GRAAGAFYS,"1.38, 1.47, 1.48",0 of 9
GFTLLSYGIS,VIYSDGRRTFYGDSVD,GRAFGTFDS,"2.24, 2.09, 2.45",0 of 9
GFTLNCYGIS,VIYSDGRRTSYGDSVK,GRAAGTFDS,"2.48, 2.26, 2.78",0 of 9

Nonspecific signal, from three strains lacking the peptide, appeared in 15% of pairings of library AAYL49, centred on 4.06 (5% of these signals below 2.83); values are not corrected for it. The control count says in how many pairings with the empty strains this scFv gave a signal.